For one molecule, Ki results are on record in BindingDB's records for doi:10.1016/0024-3205(76)90375-1 (1976).

Amino acid sequences for entries named in this document (tags omitted).
UniProt P32305, whole entry: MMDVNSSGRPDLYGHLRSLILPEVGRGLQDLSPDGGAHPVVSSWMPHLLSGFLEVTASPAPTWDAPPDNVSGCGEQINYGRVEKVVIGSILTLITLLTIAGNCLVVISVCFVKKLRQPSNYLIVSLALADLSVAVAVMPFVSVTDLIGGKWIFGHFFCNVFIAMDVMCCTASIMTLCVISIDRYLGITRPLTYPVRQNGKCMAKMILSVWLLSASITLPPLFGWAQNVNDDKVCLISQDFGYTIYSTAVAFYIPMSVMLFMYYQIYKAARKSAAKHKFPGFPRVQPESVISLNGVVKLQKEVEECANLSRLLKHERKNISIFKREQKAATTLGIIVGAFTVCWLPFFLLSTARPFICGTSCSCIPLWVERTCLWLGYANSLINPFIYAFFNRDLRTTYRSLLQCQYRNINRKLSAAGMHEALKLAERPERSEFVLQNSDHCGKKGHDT

Usually Ki stands for the equilibrium dissociation constant of an inhibitor or competing ligand from its target. The low end stands for a stronger hold on the target, the high end for a looser hold on the target.

The target of the assay is 5-hydroxytryptamine receptor 7 (Rattus norvegicus, UniProt P32305).

In the case of `Clc1cccc(Cl)c1N=C1NCCN1` [2-(2,6-dichloroanilino)-2-imidazoline], the affinity corresponds to a Ki of 4.7 nM.
